Molecules are shown by their SMILES. The list shows a part of the results, in another mix than the full data. Results filed as inconclusive are left out. The source made the active and inactive calls. Calls follow the shape of the dose curve; as a rule, active = well fitted inhibition curve with a large enough effect; inconclusive = small, poorly fitted or top-dose-only effect, or another doubt; inactive = no such curve, though single readings can be large or run the other way.
Potency is read from the fitted curve at half-maximal effect.

By UniProt entry, the sequences of proteins in these tests, tags left out.
UniProt Q92830, whole entry, looked up: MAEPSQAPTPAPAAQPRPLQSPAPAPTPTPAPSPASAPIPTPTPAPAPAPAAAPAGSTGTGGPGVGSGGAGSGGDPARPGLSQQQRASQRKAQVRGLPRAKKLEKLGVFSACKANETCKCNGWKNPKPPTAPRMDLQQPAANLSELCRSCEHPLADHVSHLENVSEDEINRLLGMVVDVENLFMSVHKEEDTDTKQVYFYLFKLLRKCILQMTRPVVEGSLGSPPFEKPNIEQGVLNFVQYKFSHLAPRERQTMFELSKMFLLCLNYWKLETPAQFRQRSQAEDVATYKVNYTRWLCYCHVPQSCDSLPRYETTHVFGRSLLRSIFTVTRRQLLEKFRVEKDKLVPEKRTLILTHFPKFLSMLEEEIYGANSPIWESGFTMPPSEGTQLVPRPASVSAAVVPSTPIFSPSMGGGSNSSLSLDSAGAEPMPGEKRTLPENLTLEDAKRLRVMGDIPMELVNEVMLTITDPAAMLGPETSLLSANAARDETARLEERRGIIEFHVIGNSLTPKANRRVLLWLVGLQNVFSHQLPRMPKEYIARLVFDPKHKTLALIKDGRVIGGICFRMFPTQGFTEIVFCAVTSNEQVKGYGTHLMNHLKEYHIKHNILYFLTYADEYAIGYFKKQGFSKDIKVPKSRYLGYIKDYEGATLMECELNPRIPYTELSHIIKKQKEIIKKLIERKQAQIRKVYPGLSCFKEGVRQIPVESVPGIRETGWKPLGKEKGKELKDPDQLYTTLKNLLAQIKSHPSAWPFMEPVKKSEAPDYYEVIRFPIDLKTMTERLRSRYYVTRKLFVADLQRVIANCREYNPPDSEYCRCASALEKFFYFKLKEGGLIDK

The target in the assay is Histone acetyltransferase KAT2A (Homo sapiens) (UniProt Q92830). Briefly: qHTS Assay for Inhibitors of GCN5L2. Particulars: GCN5L2 HAT assay, ThioGlo1 CoA-SH fluorescence. The text has this: Histone acetyltransferase (HAT) enzymes transfer a […] group from acetyl-coenzyme A to the epsilon-amino group of conserved lysine residues of N-terminal histone tails. Acetylation results in charge neutralization of this positively charged amino acid, decreasing interactions with the […] backbone and making the DNA more accessible for transcription. HATs have been recognized as an emerging drug target for treatment of cancer, diabetes, asthma, chronic obstructive pulmonary disease, cardiac disease, and viral infection. […]
A quantitative high throughput screen was developed to identify small molecule inhibitors. […]
[2] Yasgar, et al. Compound Management for Quantitative High-Throughput Screening. […]
[3] Inglese, et al. Quantitative high-throughput screening: a titration-based approach that efficiently identifies biological activities in large chemical libraries. […]
To each well of a 1,536w plate, 3ul of GCN5L2 (final concentration 20nM, in 50mM HEPES, 0.1mM EDTA (pH 7.5), 0.01% Tween-20 buffer) are added using a Kalypsys dispenser. […] Plates are read immediately on the ViewLux (PerkinElmer) (Ex340nm/Em540nm) for a 0 min read, incubated for 20 min at room temperature, and read again on the ViewLux with the same settings. The initial read was carried out to identify compounds that are potentially fluorescent.
Background: In qHTS, concentration-response curves come from the screen itself.
As to `CC(CCC(C)C(C)(C)C)[C@@H]1CC[C@H]2C3C[C@H](OS(O)(=S)=S)[C@H]4C[C@H](OS(O)(=S)=S)[C@@H](OS(O)(=S)=S)C[C@]4(C)[C@H]3CC[C@]12C` (some centres not stated) (tested in a mixture with another compound), the Potency is active: 2.82 µM.

With `COc1ccc(Nc2nc(Nc3ccc(OC)cc3)nc(SC3=NCCS3)n2)cc1`, the Potency was active: 35.5 µM.

The values above are taken from PubChem BioAssay AID504327 (National Center for Advancing Translational Sciences (NCATS), 2011).
